Experimental data taken from ChEMBL document CHEMBL4130495, “Design, synthesis and biological evaluations of N-Hydroxy thienopyrimidine-2,4-diones as inhibitors of HIV reverse transcriptase-associated RNase H” (Eur J Med Chem, 2017).

System: Human immunodeficiency virus 1
Assay: Selectivity index, ratio of IC50 for inhibition of HIV1 integrase to IC50 for inhibition of RNH activity of recombinant HIV1 reverse transcriptase RNase H

In the case of `O=c1[nH]c2scc(-c3ccc(Cl)cc3)c2c(=O)n1O`, the Ratio IC50 is reported as 53.
